Experimental data taken from US6177078A, “Monoclonal antibody antagonists to IL-3” (Medvet Science Pty Limited, priority 1995, dated 2001).

Key:
[1] = molecular target: T1, IL-3Rα chain (Homo sapiens, UniProt P26951); test: Competition for 125I-7G3 binding to F6 cells by IL-3 or GM-CSF; details: F6 cells expressing IL-3Rα chain alone, preincubated, 1 nM 125I-7G3
T1 construct: expressed in transfected cells
T1 sequence (P26951 19-378): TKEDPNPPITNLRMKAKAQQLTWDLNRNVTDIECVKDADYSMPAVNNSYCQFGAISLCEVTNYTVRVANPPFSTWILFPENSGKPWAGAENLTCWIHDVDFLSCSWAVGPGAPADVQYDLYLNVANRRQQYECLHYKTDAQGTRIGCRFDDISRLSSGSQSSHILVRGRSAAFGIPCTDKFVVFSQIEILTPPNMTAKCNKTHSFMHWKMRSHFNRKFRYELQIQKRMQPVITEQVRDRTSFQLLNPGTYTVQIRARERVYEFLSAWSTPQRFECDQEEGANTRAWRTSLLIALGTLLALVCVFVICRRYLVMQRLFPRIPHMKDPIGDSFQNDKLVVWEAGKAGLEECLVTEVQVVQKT
Description: (§1) The binding curve was analysed by Scatchard transformation.^31 In competition binding experiments F6 cells or COS cells co-expressing IL-3R α and β chains were preincubated for 2 hours at 4° C. with a range of concentrations of IL-3 or GM-CSF before adding 1 nM of ^125 I-7G3 for a further 2 hours.

[2] = molecular target: T2, IL-3R α and β chains (Homo sapiens, UniProt P26951); test: Competition for 125I-7G3 binding to COS cells expressing IL-3R α and β chains by IL-3 or GM-CSF; details: COS cells transfected with IL-3Rα and β chain, preincubated, 1 nM 125I-7G3
T2 construct: expressed in transfected cells; host or cells: COS (monkey fibroblast) cells, transient co-transfection
T2 sequence (P26951 19-378): T1 sequence (P26951 19-378)
Description: as §1

[3] = tested on: TF-1 cells; test: IL-3-mediated TF-1 cell proliferation assay; assay type: cell-based; details: dose-response of IL-3
Description: Inhibition of IL-3-mediated TF-1 cell proliferation assay. TF-1 cells were starved of GM-CSF for 24 to 48 hours before setting up proliferation assays. Briefly, 1×10^4 cells were incubated in wells with 0.3 ng/ml of IL-3 in the presence of a range of concentrations of MoAbs (0.00064-64 nM) for 48 hours at 37° C. Wells were pulsed with 0.5 μCi/well ^3 H-thymidine for 4 hours and then harvested onto a glass filter and radioactivities determined by liquid scintillation. The results were expressed as disintegrations per minute (DPM).

inhibition of 125I-7G3 binding to the IL-3R [1]: inhibited | inhibition of 125I-7G3 binding to the IL-3R [2]: inhibited
B1: IL-3: Recombinant human IL-3 produced in E. coli (protein, UniProt P08700 20-152, looked up)
Interleukin-3: APMTQTTPLKTSWVNCSNMIDEIITHLKQPPLPLLDFNNLNGEDQDILMENNLRRPNLEAFNRAVKSLQNASAIESILKNLLPCLPLATAAPTRHPIHIKDGDWNEFRRKLTFYLKTLENAQAQQTTLSLAIF
concentration stimulating half-maximal proliferation of TF-1 cells [3]: approximately 0.3 ng/ml
